Measured values from ChEMBL document CHEMBL5030542, “Pillar[5]arene-Based Polycationic Glyco[2]rotaxanes Designed as Pseudomonas aeruginosa Antibiofilm Agents” (J Med Chem, 2021).

Experiments:
[1] = biological target: Fucose-binding lectin PA-IIL (Pseudomonas aeruginosa (strain ATCC 15692 / DSM 22644 / CIP 104116 / JCM14847 / LMG 12228 / 1C / PRS 101 / PAO1)) (UniProt Q9HYN5); test: Binding affinity to recombinant Pseudomonas aeruginosa LecB expressed in Escherichia coli assessed as change in enthalpy by isothermal titration calorimetry
[2] = biological target: Fucose-binding lectin PA-IIL (Pseudomonas aeruginosa (strain ATCC 15692 / DSM 22644 / CIP 104116 / JCM14847 / LMG 12228 / 1C / PRS 101 / PAO1)) (UniProt Q9HYN5); test: Binding affinity to recombinant Pseudomonas aeruginosa LecB expressed in Escherichia coli assessed as change in entropy by isothermal titration calorimetry

CO[C@@H]1O[C@@H](C)[C@@H](O)[C@@H](O)[C@@H]1O
deltaH [1]: -9.87 kcal/mol | deltaS [2]: 1.17 kcal/mol
